This is an account of results in US10166199B2, “Transdermal patch comprising a ropivacaine formulation” (BUZZZ PHARMACEUTICALS LIMITED, priority 2013, dated 2019).

Where two headings read alike, the source gives them in different places.

The data set is described as follows: Approximate ropivacaine solubility in excipients, assessed visually. It counts as physicochemical.

In the case of “glycerol monocaprylate/caprate [Capmul-MCM-EP]”, the “% Solubility (ropivacaine in candidate excipient)” value (shortened to “% Solubility”) is 4.5-5.1 % w/v.

Turning to “mono/diglycerides capric acid [Capmul-MCM-C8-EP]”, the “% Solubility” value is given as 5.5-6.0 % w/v.

With sorbitan trioleate [Span 85], for the setting “solubility of ropivacaine in the named excipient, gradual addition at room temperature, visual”, the “% Solubility” value is 3.1-3.9 % w/v.
